For the data set, the system named is term human placenta (single cotyledon).

As for antipyrine 14C, the “single pass maternal-fetal transfer” value is listed as > 40% and the transport fraction was > 1.85.
